Target: E3 ubiquitin-protein ligase Mdm2 (Homo sapiens, UniProt Q00987)
Test: Inhibition of MDM2 assessed as fold change

Chains of the proteins cited; added tags and fusions are not shown.
UniProt Q00987, whole entry, looked up: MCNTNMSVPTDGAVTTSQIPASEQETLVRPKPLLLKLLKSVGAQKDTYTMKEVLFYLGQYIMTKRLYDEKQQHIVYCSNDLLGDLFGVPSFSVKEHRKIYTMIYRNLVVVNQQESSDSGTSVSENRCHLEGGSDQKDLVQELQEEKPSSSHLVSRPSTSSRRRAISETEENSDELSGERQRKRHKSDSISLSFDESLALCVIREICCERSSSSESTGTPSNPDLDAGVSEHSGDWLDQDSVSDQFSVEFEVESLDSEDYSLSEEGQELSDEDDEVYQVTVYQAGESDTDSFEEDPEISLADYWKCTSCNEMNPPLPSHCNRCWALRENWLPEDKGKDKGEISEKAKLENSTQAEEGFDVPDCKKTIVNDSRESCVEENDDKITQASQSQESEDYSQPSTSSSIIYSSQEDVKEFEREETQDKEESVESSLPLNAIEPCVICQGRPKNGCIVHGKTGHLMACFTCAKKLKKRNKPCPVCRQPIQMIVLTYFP

Q: With `COc1cc(C(=O)O)ccc1NC(=O)[C@@H]1N[C@@H](CC(C)(C)C)[C@](C#N)(c2ccc(Cl)cc2F)[C@H]1c1cccc(Cl)c1F` [IDASANUTLIN] as the compound, how does the fold change (FC) read?
A: > 100

Source: ChEMBL document CHEMBL5223086, “Recent Progress and Clinical Development of Inhibitors that Block MDM4/p53 Protein-Protein Interactions” (J Med Chem, 2021)
